Assay results from patent publication US7423181B2, “Aminoalkoxy-functional chalcones” (Lica Pharmaceuticals A/S, priority 2002, dated 2008).
Converted amounts (≈) assume the structure as drawn.

Each compound was assayed on Staphylococcus intermedius #2357(clinical isolate from the Copenhagen area) (assay: MIC determination in broth microdilution assay). Details: C: Staphylococcus intermedius #2357.

`COc1ccc(C(=O)/C=C/c2cc(C(C)(C)C)ccc2OCCN(C)C)c(F)c1` [Compound C004, (E)-3-[5-tert-Butyl-2-(2-dimethylamino-ethoxy)-phenyl]-1-(2-fluoro-4-methoxy-phenyl)-propenone] and `CCCc1cc(/C=C/C(=O)c2ccc(OC)cc2F)c(OCCN(C)C)cc1O` [Compound C039, (E)-3-[2-(2-Dimethylamino-ethoxy)-4-hydroxy-5-propyl-phenyl]-1-(2-fluoro-4-methoxy-phenyl)-propenone] are the same in MIC: 18.8 µM (≈ 7.51 µg/mL) for the first, 18.8 µM (≈ 7.55 µg/mL) for the second.

`COc1ccc(C(=O)/C=C/c2cc(-c3cc(C)cc(C)c3)ccc2OCCN(C)C)cc1` [Compound C023, (E)-3-[4-(2′-Dimethylamino-ethoxy)-3′,5′-dimethyl-biphenyl-3-yl]-1-(4-methoxy-phenyl)-propenone] and `Cc1cc(C)cc(-c2ccc(OCCN(C)C)c(/C=C/C(=O)c3cccc(O)c3)c2)c1` [Compound C085, (E)-3-[4-(2-Dimethylamino-ethoxy)-3′,5′-dimethyl-biphenyl-3-yl]-1-(3-hydroxy-phenyl)-propenone] are the same in MIC: 4.7 µM (≈ 2.02 µg/mL) for the first, 4.7 µM (≈ 1.95 µg/mL) for the second.

`Cc1cc(C)cc(-c2ccc(OCCN(C)C)c(/C=C/C(=O)c3ccccc3OC(C)C)c2)c1` [Compound C067, (E)-3-[4-(2-Dimethylamino-ethoxy)-3′,5′-dimethyl-biphenyl-3-yl]-1(2-isopropoxy-phenyl)-propenone] and `Cc1cc(C)cc(-c2ccc(OCCN(C)C)c(/C=C/C(=O)c3ccccc3N)c2)c1` [Compound C093, (E)-1-(2-Amino-phenyl)-3-[4-(2-dimethylamino-ethoxy)-3′,5′-dimethyl-biphenyl-3-yl]-propenone] are the same in MIC: 4.7 µM (≈ 2.15 µg/mL) for the first, 4.7 µM (≈ 1.95 µg/mL) for the second.

`Cc1cc(C)cc(-c2ccc(OCCN(C)C)c(/C=C/C(=O)c3ccccc3NCCN(C)C)c2)c1` [Compound C074, (E)-3-[4-(2-Dimethylamino-ethoxy)-3′,5′-dimethyl-biphenyl-3-yl]-1-[2-(2-dimethylamino-ethylamino)-phenyl]-propenone] and `Cc1cc(C)cc(-c2ccc(OCCN(C)C)c(/C=C/C(=O)c3cccc(NCCN(C)C)c3)c2)c1` [Compound C075, (E)-3-[4-(2-Dimethylamino-ethoxy)-3′,5′-dimethyl-biphenyl-3-yl]-1-[3-(2-dimethylamino-ethylamino)-phenyl]-propenone] are the same in MIC: 9.4 µM (≈ 4.57 µg/mL) for the first, 9.4 µM (≈ 4.57 µg/mL) for the second.

Going from `COc1ccc(C(=O)/C=C/c2cc(-c3cc(C)cc(C)c3)ccc2OCCN(C)C)c(CN(C)C)c1` [Compound C092, (E)-3-[4-(2-Dimethylamino-ethoxy)-3′,5′-dimethyl-biphenyl-3-yl]-1-(2-dimethylaminomethyl-4-methoxy-phenyl)-propenone] to `Cc1cc(C)cc(-c2ccc(OCCN(C)C)c(/C=C/C(=O)c3ccc(OCCN(C)C)cc3F)c2)c1` [Compound C157, (E)-3-[4-(2-Dimethylamino-ethoxy)-3′,5′-dimethyl-biphenyl-3-yl]-1-[4-(2-dimethylamino-ethoxy)-2-fluoro-phenyl]-propenone], the MIC falls from 18.8 µM (≈ 9.15 µg/mL) to 9.4 µM (≈ 4.74 µg/mL) (2-fold).

Going from `Cc1cc(C)cc(-c2ccc(OCCN(C)C)c(/C=C/C(=O)c3cccc(N4CCN(C)CC4)c3)c2)c1` [Compound C103, (E)-3-[4-(2-Dimethylamino-ethoxy)-3′,5′-dimethyl-biphenyl-3-yl]-1-[3-(4-methyl-piperazin-1-yl)-phenyl]-propenone] to `Cc1cc(C)cc(-c2ccc(OCCN(C)C)c(/C=C/C(=O)c3ccccc3OCCCN(C)C)c2)c1` [Compound C104, (E)-3-[4-(2-Dimethylamino-ethoxy)-3′,5′-dimethyl-biphenyl-3-yl]-1-[2-(3-dimethylamino-propoxy)-phenyl]-propenone], the MIC rises from 9.4 µM (≈ 4.68 µg/mL) to 18.8 µM (≈ 9.41 µg/mL) (2-fold).

Same assay, conditions: Staphylococcus intermedius

Compound `Cc1cc(C)cc(-c2ccc(OCCN(C)C)c(CCC(=O)c3ccc(F)cc3)c2)c1` [Compound C072, 3-[4-(2-Dimethylamino-ethoxy)-3′,5′-dimethyl-biphenyl-3-yl]-1-(4-fluoro-phenyl)-propan-1-one] has an MIC of 9.4 µM (≈ 3.94 µg/mL).
